Laboratory results taken from patent US20050221459A1.

Biological target: Rat GGTase-I β subunit (rat) (UniProt P53610)
Assay: X-ray crystal structure of rat GGTase-I

interface between the α and β subunits: > 3300 Å^2
Substance: Rat GGTase-I α subunit (from UniProt Q04631 1-377) (enzyme)
